Our source for the CC50 values is ChEMBL document CHEMBL4229345, “Inhibition of trypanosome alternative oxidase without its N-terminal mitochondrial targeting signal (ΔMTS-TAO) by cationic and non-cationic 4-hydroxybenzoate and 4-alkoxybenzaldehyde derivatives active against T. brucei and T. congolense” (Eur J Med Chem, 2018).

The data set relates to HFF. The experiment in a line: Cytotoxicity against HFF cells assessed as reduction in cell viability after 30 hrs by resazurin-based assay. To be noted: human.

SMILES strings stand for the structures.

As for `O=[As]c1ccccc1` (stereo unspecified), the CC50 was 290 nM.

In general, CC50 refers to the concentration giving 50% cytotoxicity.
